{"source": "patent US20040009511A1", "about": "“Identification of compounds which stimulate bone formation using a cell-based screening assay targeting BMP signaling” (priority 2002, published 2004)", "format_in_all_cases": "cell-based", "key": {"[1]": {"tested_on": "9×SBE-6×OSE2-OC-luc reporter construct", "test": "Luciferase assay, 9×SBE-6×OSE2-OC-luc reporter construct, cells not specified", "excerpt": "(§1) An oligonucleotide containing 9 copies of Smad1 response element (9×SBE) and 6 copies of Cbfa1 response element (6×OSE2) was synthesized in the DNA laboratory at University of Texas Health Science Center at San Antonio. The osteocalcin basal promoter (OC, −155/+1) was amplified by Polymerase Chain Reaction (PCR) using mouse genomic DNA as a template and cloned into pGL3 vector. An 9×SBE-6×OSE2 oligonucleotide was cloned upstream of osteocalcin basal promoter.\n(§2) C2C12 and 2T3 cells, in which 9×SBE-6×OSE2-OC-luc-reporter construct was stably transfected, were plated in 96-well culture plates at densities of 1×10^4 and 0.5×10^4 cells/well and cultured for 24 hours. The medium was changed to fresh medium supplemented with 2% FCS and different growth factors or hormone were added to culture medium for 24 hours or different compounds were added to culture medium for 2, 6, 12, 24 and 48 hours. The cell lysates were extracted and luciferase activities were determined by luciferase assay kit (Promega, Madison, Wis.) using a Luminometer.\nFurther, a reporter construct which contains multiple copies of both Smad1 (SBE) and Cbfa1 (OSE2) response elements (9×SBE-6×OSE2-OC-luc) was made."}, "[2]": {"tested_on": "9×SBE-OC-pGL3 reporter construct with mutated OSE2 site", "test": "OSE2-mutated 9×SBE-OC-pGL3 reporter construct response", "conditions": "OSE2 site mutated in osteocalcin basal promoter", "excerpt": "Further, the OSE2 site was mutated in the osteocalcin basal promoter in 9×SBE-OC-pGL3 reporter construct."}, "[3]": {"tested_on": "9×SBE-OC-luc reporter construct in C2C12 cells", "test": "9×SBE-OC-luc reporter construct response in C2C12 cells", "excerpt": "(§3) Multiple copies of a Smad1 response element (9×SBE) were cloned in front of a SV40 basal promoter (9×SBE-SV40-luc) and an osteocalcin basal promoter (9×SBE-OC-luc). […] In contrast, 9×SBE-SV40-luc reporter construct had no response to either BMP-2 treatment or transfection of constitutively active BMPR-IA."}, "[4]": {"tested_on": "9×SBE-OC-luc reporter construct in 2T3 cells", "test": "9×SBE-OC-luc reporter construct response in 2T3 cells", "excerpt": "as §3"}, "[5]": {"tested_on": "9×SBE-6×OSE2-OC-luc reporter construct in C2C12 C-10-62 cells", "test": "Luciferase assay, 9×SBE-6×OSE2-OC-luc reporter stably transfected in C2C12 clone C-10-62", "conditions": "24 hours", "experimental": "as §1\nC2C12 and 2T3 cells were plated in 6-well culture plates at densities of 4×10^5 and 2×10^5 cells/well and cultured with DMEM or α minimal essential medium (α MEM) supplemented with 10% FCS for 24 hours. A 9×SBE-6×OSE2-OC-luc-reporter construct (2 μg/well) was co-transfected with pcDNA3 empty vector (0.2 mg/well) in C2C12 and 2T3 cells using lipofactamine plus reagents (Gibco/BRL). Forty eight hours later, G418 (200 μg/ml) was added to the culture plates. […]\nC2C12 and 2T3 cells, in which 9×SBE-6×OSE2-OC-luc-reporter construct was stably transfected, were plated in 96-well culture plates at densities of 1×10^4 and 0.5×10^4 cells/well and cultured for 24 hours. […] The cell lysates were extracted and luciferase activities were determined by luciferase assay kit (Promega, Madison, Wis.) using a Luminometer. […]"}, "[6]": {"tested_on": "9×SBE-6×OSE2-OC-luc reporter construct in 2T3 C-17 cells", "test": "Luciferase assay, 9×SBE-6×OSE2-OC-luc reporter stably transfected in 2T3 clone C-17", "set-up": "Luciferase Activity: unit not given here", "conditions": "24 hours; for Luciferase Activity / Luciferase Activity (fold increase): 2T3 clone 17", "experimental": "as §1\nC2C12 and 2T3 cells were plated in 6-well culture plates at densities of 4×10^5 and 2×10^5 cells/well and cultured with DMEM or α minimal essential medium (α MEM) supplemented with 10% FCS for 24 hours. A 9×SBE-6×OSE2-OC-luc-reporter construct (2 μg/well) was co-transfected with pcDNA3 empty vector (0.2 mg/well) in C2C12 and 2T3 cells using lipofactamine plus reagents (Gibco/BRL). Forty eight hours later, G418 (200 μg/ml) was added to the culture plates. Four weeks after G418 selection, the G418 resistant cells were plated in 96-well plates at the density of 1 cell/well and cloned by limiting dilution method.\nas §2\nTo determine the effects of BMPs on a 9×SBE-6×OSE2-OC-luc reporter construct, C2C12 clone C-10-62 and 2T3 clone C-17 were treated with different concentrations of BMP-2, BMP-4 and BMP-7 for 24 hours and changes in luciferase activity of this reporter construct were examined. In the assay using 2T3 clone 17, different concentrations of BMP-2 (see Table 1), BMP-4 (see Table 2) and BMP-7 (see Table 3) were added to the medium and cultured for 24 hours. At the end of the incubation, the cell lysates were extracted using lysis buffer and luciferase activities were measured using a luciferase assay kit (Promega)."}, "[7]": {"tested_on": "9×SBE-SV40-luc reporter construct", "test": "9×SBE-SV40-luc reporter construct response", "excerpt": "as §3"}}}
{"substance": "BMP-2: Bone morphogenetic protein 2, growth factor of the TGF-β superfamily", "values": [{"measurement": "Dose-response and time-course effect on luciferase activity of the reporter construct", "setting": "[1]; cells not specified", "value": "stimulates the luciferase activity of this reporter construct in a dose- and time-dependent manner"}, {"measurement": "Responsiveness to BMP-2 of 9×SBE-6×OSE2-OC-luc relative to 9×SBE-OC-luc", "setting": "[1]; compared with construct 9×SBE-OC-luc", "value": "about 10 fold"}, {"measurement": "Minimal effective dose", "setting": "[1]; stimulation of luciferase activity, stated for C2C12 C-10-62 and 2T3 C-17 without distinction", "value": "1 to 2", "unit": "ng/mL"}, {"measurement": "Response of OSE2-mutated 9×SBE-OC-pGL3 reporter construct", "setting": "[2]", "value": "completely lost its responses"}, {"measurement": "Response of 9×SBE-OC-luc reporter construct", "setting": "[3]", "value": "responded to BMP-2 in a dose-dependent manner"}, {"measurement": "Response of 9×SBE-OC-luc reporter construct", "setting": "[4]", "value": "responded to BMP-2 in a dose-dependent manner"}, {"measurement": "Effect on luciferase activity of the reporter construct", "setting": "[5]", "value": "stimulated luciferase activity in a dose-dependent manner"}, {"measurement": "Effect on luciferase activity of the reporter construct", "setting": "[6]; 2T3 C-17 cells", "value": "stimulated luciferase activity in a dose-dependent manner"}, {"measurement": "Luciferase Activity", "setting": "[6]; BMP-2 0.39 ng/ml", "value": 0.106}, {"measurement": "Luciferase Activity (fold increase)", "setting": "[6]; BMP-2 0.39 ng/ml", "value": 1.6, "unit": "fold"}, {"measurement": "Luciferase Activity", "setting": "[6]; BMP-2 0.78 ng/ml", "value": 0.148}, {"measurement": "Luciferase Activity (fold increase)", "setting": "[6]; BMP-2 0.78 ng/ml", "value": 2.2, "unit": "fold"}, {"measurement": "Luciferase Activity", "setting": "[6]; BMP-2 1.56 ng/ml", "value": 0.200}, {"measurement": "Luciferase Activity (fold increase)", "setting": "[6]; BMP-2 1.56 ng/ml", "value": 3.0, "unit": "fold"}, {"measurement": "Luciferase Activity", "setting": "[6]; BMP-2 3.125 ng/ml", "value": 0.305}, {"measurement": "Luciferase Activity (fold increase)", "setting": "[6]; BMP-2 3.125 ng/ml", "value": 4.6, "unit": "fold"}, {"measurement": "Luciferase Activity", "setting": "[6]; BMP-2 6.25 ng/ml", "value": 0.492}, {"measurement": "Luciferase Activity (fold increase)", "setting": "[6]; BMP-2 6.25 ng/ml", "value": 7.3, "unit": "fold"}, {"measurement": "Luciferase Activity", "setting": "[6]; BMP-2 12.5 ng/ml", "value": 0.761}, {"measurement": "Luciferase Activity (fold increase)", "setting": "[6]; BMP-2 12.5 ng/ml", "value": 11.4, "unit": "fold"}, {"measurement": "Luciferase Activity", "setting": "[6]; BMP-2 25 ng/ml", "value": 1.235}, {"measurement": "Luciferase Activity (fold increase)", "setting": "[6]; BMP-2 25 ng/ml", "value": 18.4, "unit": "fold"}, {"measurement": "Luciferase Activity", "setting": "[6]; BMP-2 50 ng/ml", "value": 1.680}, {"measurement": "Luciferase Activity (fold increase)", "setting": "[6]; BMP-2 50 ng/ml", "value": 25.1, "unit": "fold"}, {"measurement": "Luciferase Activity", "setting": "[6]; BMP-2 100 ng/ml", "value": 2.102}, {"measurement": "Luciferase Activity (fold increase)", "setting": "[6]; BMP-2 100 ng/ml", "value": 31.4, "unit": "fold"}, {"measurement": "Response of 9×SBE-SV40-luc reporter construct", "setting": "[7]", "value": "no response"}]}
